Only some compounds are listed: those with a hit (about 3.7% of all), similar ones and a draw of the others.
A549 tox: A549 cytotoxicity, counter-screen for Nrf2 inhibitors; A549 ARE-Fluc cells, CellTiter-Fluor viability, 18-24 h; Potency, µM (highest dose often 46 µM), for inactives: at the top dose activity change, negative = cytotoxicity, usual class: inhibitors; actives 0.16% (n = 390,000); AID 504648; also: potency is read from the fitted curve at half-maximal effect; % is scaled to controls: 0 for no effect and ±100 for the full control effect
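A549 ARE-Fluc cells in 5% FBS OPTI-MEM, 5000 cells/well, rested 2 h then exposed to compounds in concentration-response for 18-24 h at 37 °C. Viability by CellTiter-Fluor fluorescence (Ex 405/Em 525) after 30 min; luciferase luminescence (BugLite, 15 min, RT) read afterwards.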
ClpP mod: qHTS Assay for Activators of ClpP. ATP-dependent Clp protease proteolytic subunit (Bacillus subtilis (strain 168)), P80244. Potency, µM (top dose mostly 57.5 µM), without a hit: top-dose activity change, negative = active. purified B. subtilis ClpP, FRET peptide cleavage, 20 min. actives 1.9% (n = 340,000); active = well fitted falling curve with a large enough effect; inconclusive = small, poorly fitted or top-dose-only effect; inactive = no such curve, though single readings can be large or run the other way; also: potency is read from the fitted curve at half-maximal effect; the source files actives as falling curves though it sought activators and does not explain the sign; nearly all actives have a fitted effect of over 65% in size
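FRET quenching reversal measured ClpP activation: 10 microg/mL B. subtilis ClpP at pH 8 with the FRET-FV decapeptide, read at 430 nm after 320 nm excitation. The 20-min minus 0-min signal was scaled between DMSO/no-enzyme wells and ADEP (5.8 microM final).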
Nrf2 ARE act: activates Nrf2 signaling; AREc32 ARE-luciferase reporter (MCF7-derived line), luminescence, 24 h; Potency, µM (titrated, usually from 46.1 µM), without a hit: at the highest dose activation, actives largely listed as activators; actives 0.31% (n = 410,000); AID 624171; also: potency is read from the fitted curve at half-maximal effect; % of control where 0% means no effect; nearly all actives have a fitted effect of over 65% in size
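Luminescent ARE reporter assay in AREc32_Fluc cells: overnight plating at 37 deg C, 24 hr compound incubation, Steady-Glo added, 30 min RT before reading.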
Nrf2 block: inhibitors of Nrf2 signaling; A549 ARE-Fluc reporter, luciferase luminescence, 18-24 h; Potency, µM (series often up to 46 µM), for the others: top-dose activity change, negative = inhibition, most hits filed as inhibitors; actives 2.1% (n = 360,000); AID 504444; also: potency is read from the fitted curve at half-maximal effect; % is scaled to controls: 0 for no effect and ±100 for the full control effect; nearly all actives have a fitted effect of over 60% in size
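Quantitative HTS in A549 cells stably bearing an antioxidant response element-firefly luciferase construct. Inhibition of Nrf2-driven transcription was scored by luminescence after 18-24 h of compound exposure at 37 °C.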
miR-21 reporter: miR-21 reporter, rising signal | HeLa miR-21 FLuc reporter, luciferase, 48 h | Potency, µM (doses to about 38.3 µM), inactives show at the top dose reporter change, positive = more light | 340,000 tested, under 10 active | AID 2288; active = well fitted rising curve with a large enough effect; inconclusive = small, poorly fitted or top-dose-only effect; inactive = no such curve, though single readings can be large or run the other way;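 note: % of control where 0% means no effect; miR-21 action dims this reporter so a rising signal means less miR-21 action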
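Using DMEM plus 10% FBS, HeLa miR-21-FLuc cells are incubated with test compounds (final up to about 40uM) for 48 hours; firefly luciferase signal is then imaged following reagent-mediated lysis.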
TCR activator: T cell receptor activation | primary human leukocytes, anti-CD3, IL-2 HTRF, 48 h | Potency, µM (highest dose often 9.22 µM), without a hit: top-dose activation of IL-2 secretion, hits mostly activators | 330,000 tested, under 10 active; also: % of control where 0% means no effect
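Human primary leukocytes + a-CD3 beads + cpd, 48 hr; IL-2 in supernatant by HTRF (ex 320nm / em 665nm). No co-stimulatory signal supplied.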
Active calls of the source: *; [ ] = dose if it differs, or a comment. Unless noted, calls follow the shape of the dose curve; as a rule, active = well fitted curve in the direction sought with a large enough effect; inconclusive = small, poorly fitted or top-dose-only effect, or another doubt; inactive = no such curve, though single readings can be large; an effect the other way counts as inactive or inconclusive.

Amino acid sequences for entries named in this document (tags omitted).
ATP-dependent Clp protease proteolytic subunit (Bacillus subtilis (strain 168)), P80244, UniProt P80244, whole entry, looked up: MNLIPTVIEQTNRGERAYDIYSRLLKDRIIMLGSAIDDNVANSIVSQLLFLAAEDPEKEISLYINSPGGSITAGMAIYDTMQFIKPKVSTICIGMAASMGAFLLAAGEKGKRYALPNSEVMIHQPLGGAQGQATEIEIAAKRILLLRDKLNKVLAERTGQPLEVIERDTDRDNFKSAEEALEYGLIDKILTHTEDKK

Screening Cc1cc(C(=O)COc2cccnc2[N+](=O)[O-])c(C)n1-c1ccccc1F returned A549 tox 18%, ClpP mod 0%, Nrf2 ARE act -1%, Nrf2 block inconclusive, miR-21 reporter 0% and TCR activator -41%.
`CN(CCN(C)c1nc(-c2cccs2)nc2ccccc12)C(=O)OC(C)(C)C` gave A549 tox 2%, ClpP mod -10% and Nrf2 block 4%.
For O=C1CN(C(=O)COC(=O)c2ccccc2NCc2ccco2)c2ccccc2N1 the results were A549 tox -3%, ClpP mod 25µM*, Nrf2 ARE act 9%, Nrf2 block -20%, miR-21 reporter -1% and TCR activator -1%.
Screening COC(=O)c1c(NC(=O)C2COc3ccccc3O2)sc2c1CCN(C(C)=O)C2 (centres undefined) returned A549 tox inconclusive, ClpP mod -7%, Nrf2 ARE act 3%[9.22 µM], Nrf2 block 21µM*, miR-21 reporter 13% and TCR activator -2%[46.1 µM].
Screening Cc1ccccc1CCNC(=O)c1cc(C2CC2)nc2c1cnn2C(C)C returned A549 tox 4%, ClpP mod 3%, Nrf2 ARE act 0%, Nrf2 block -14% and TCR activator -1%.
For CC(C)n1ncc2c(C(=O)NCCc3ccc(F)cc3)cc(C3CC3)nc21 the results were A549 tox 0%, ClpP mod 32µM*, Nrf2 ARE act 0%, Nrf2 block -8% and TCR activator 2%.
Screening O=C(CNC(=O)c1ccccc1F)NCC(c1cccs1)N1CCOCC1 (centres undefined) returned A549 tox -1%, ClpP mod 1%, Nrf2 ARE act -1% and Nrf2 block 3%.
Screening COc1cc(NC(=O)c2cc(S(=O)(=O)N3CCC(C)CC3)cn2C)cc(OC)c1OC returned A549 tox 0%, ClpP mod 52%, Nrf2 ARE act -1% and miR-21 reporter 1%.
Screening COc1cccc(-c2cc(C(F)(F)F)nc(N3CCC(C)CC3)n2)c1 returned A549 tox -1%, ClpP mod 25µM*, Nrf2 ARE act 0%, Nrf2 block inconclusive, miR-21 reporter -1% and TCR activator 4%.
Screening COc1ccc(-c2cc(C(F)(F)F)nc(-n3cncn3)n2)cc1 returned A549 tox 1%, ClpP mod 20µM*, Nrf2 ARE act 0%, Nrf2 block -28%, miR-21 reporter -11% and TCR activator -4%.
`COc1nn(-c2nc(-c3ccccc3)cc(C(F)(F)F)n2)cc1[N+](=O)[O-]` gave A549 tox 5%, ClpP mod 22µM*, Nrf2 ARE act 1%, Nrf2 block 9%, miR-21 reporter 0% and TCR activator -2%[46.1 µM].
Screening COc1ccc(-c2cc(C(F)(F)F)nc(-n3cc(Br)cn3)n2)cc1 returned A549 tox 4%, ClpP mod inconclusive, Nrf2 ARE act 0%, Nrf2 block inconclusive, miR-21 reporter 0% and TCR activator -1%.
COc1cccc(-c2cc(C(F)(F)F)nc(N3CCOCC3)n2)c1 was read as A549 tox 7%, ClpP mod -29%, Nrf2 ARE act 0%, Nrf2 block inconclusive, miR-21 reporter -3% and TCR activator -3%.
For COc1cccc(-c2cc(C(F)(F)F)nc(-n3cc(Cl)cn3)n2)c1 the results were A549 tox 1%, ClpP mod 32µM*, Nrf2 ARE act 0%, Nrf2 block 10µM*, miR-21 reporter -6% and TCR activator 5%.
Screening C[C@@H]1CCCCO[C@H](CN(C)C(=O)Cc2ccccc2)[C@H](C)CN([C@@H](C)CO)C(=O)c2cc(NC(=O)Nc3ccc(F)cc3)ccc2O1 returned ClpP mod -3% and Nrf2 ARE act 0%.
For CCCNc1nc(Nc2ccc([N+](=O)[O-])cc2)nc(N2CCOCC2)n1 the results were ClpP mod 2%.
S=c1nc(-c2ccccc2)oc2c1CCCC2 was read as A549 tox 2%, ClpP mod 1%, Nrf2 ARE act 11µM*, Nrf2 block inconclusive, miR-21 reporter -54% and TCR activator -1%.
`O=[N+]([O-])c1ccc(-c2nc(=S)c3c(o2)CCCC3)cc1` gave A549 tox 0%, ClpP mod 1%, Nrf2 ARE act 1%, Nrf2 block 23%, miR-21 reporter -25% and TCR activator -3%[46.1 µM].
Screening COc1cccc(-c2nc(=S)c3c(o2)CCCC3)c1 returned A549 tox -1%, ClpP mod 1%, Nrf2 ARE act 11µM*, Nrf2 block 17%, miR-21 reporter -65% and TCR activator -1%.
`O=C(Cc1ccc2ccccc2c1)NO` gave ClpP mod 2%.
Screening Cc1c(-n2c(SCC(=O)O)nnc2-c2ccccc2Cl)c(=O)n(-c2ccccc2)n1C returned A549 tox -1%, ClpP mod 35µM*, Nrf2 ARE act 0%, Nrf2 block 8%, miR-21 reporter -1% and TCR activator 9%.
`Cc1ccc(C2C3CN(C(C)C)CC=C3C(C#N)=C(N)C2(C#N)C#N)cc1` (centres undefined) gave A549 tox -8%, ClpP mod 20µM*, Nrf2 ARE act 4%, Nrf2 block -9%, miR-21 reporter -8% and TCR activator -3%.
Screening CN1CC=C2C(C#N)=C(N)C(C#N)(C#N)[C@H](c3ccoc3)[C@H]2C1 returned A549 tox -1%, ClpP mod 32µM*, Nrf2 ARE act 0%, Nrf2 block -3%, miR-21 reporter 4% and TCR activator 1%.
`CC(=O)N1CC=C2C(C#N)=C(N)C(C#N)(C#N)[C@H](c3ccoc3)[C@H]2C1` gave A549 tox 0%, ClpP mod -5%, Nrf2 ARE act 2%, Nrf2 block -19%, miR-21 reporter -6% and TCR activator -4%.
`COc1ccc(NC(=O)C[C@H]2C(=O)N(C3CCCCC3)C[C@@H]2c2ccccc2)cc1` gave ClpP mod 1% and Nrf2 ARE act 0%.
Screening Cc1nn(-c2ccc(F)cc2)c(-n2cccc2)c1C(=O)N1CCN(c2ccc(F)cc2)CC1 returned A549 tox -12%, ClpP mod -2%, Nrf2 ARE act 0%, Nrf2 block -81% and miR-21 reporter 8%.

A draw from above in order of SMILES length, rising:
S=c1nc(-c2ccccc2)oc2c1CCCC2 was read as A549 tox 2%, ClpP mod 1%, Nrf2 ARE act 11µM*, Nrf2 block inconclusive, miR-21 reporter -54% and TCR activator -1%.
Screening COc1cccc(-c2nc(=S)c3c(o2)CCCC3)c1 returned A549 tox -1%, ClpP mod 1%, Nrf2 ARE act 11µM*, Nrf2 block 17%, miR-21 reporter -65% and TCR activator -1%.
COc1cccc(-c2cc(C(F)(F)F)nc(N3CCOCC3)n2)c1 was read as A549 tox 7%, ClpP mod -29%, Nrf2 ARE act 0%, Nrf2 block inconclusive, miR-21 reporter -3% and TCR activator -3%.

Source: PubChem
